Here are results for one compound from PubChem BioAssay (NCATS).

The chains behind the UniProt entries cited, without tags or fusion partners.
UniProt P04637, whole entry: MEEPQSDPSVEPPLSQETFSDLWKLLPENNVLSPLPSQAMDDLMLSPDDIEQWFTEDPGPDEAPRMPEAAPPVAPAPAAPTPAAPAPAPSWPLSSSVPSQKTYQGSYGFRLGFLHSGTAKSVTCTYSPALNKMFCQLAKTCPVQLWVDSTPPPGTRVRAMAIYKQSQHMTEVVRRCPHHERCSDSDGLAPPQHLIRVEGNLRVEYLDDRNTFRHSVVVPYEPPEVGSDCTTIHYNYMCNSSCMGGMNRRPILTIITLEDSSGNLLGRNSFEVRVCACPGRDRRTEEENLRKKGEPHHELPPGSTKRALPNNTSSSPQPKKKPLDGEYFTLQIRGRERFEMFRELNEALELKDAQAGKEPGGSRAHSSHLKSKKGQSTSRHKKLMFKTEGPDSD

The entries are a selection whose mix differs from that of the whole data set. Records with an inconclusive call do not appear. Activity calls are given as the source filed them. The call rests on the fitted dose curve; in most records, active means well fitted activation curve with a large enough effect; inconclusive means small, poorly fitted or top-dose-only effect; inactive means no such curve, though single readings can be large or run the other way.

This experiment concerns the target Cellular tumor antigen p53 (Homo sapiens) (UniProt P04637). The experiment is described as follows: Primary qHTS for small molecule compounds that upregulate eGFP-tagged delta133p53alpha (in N-terminal) cells. (AID 2060322).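 Further: cells pre-induced with doxycycline then dosed without doxycycline; series mostly up to about 56 µM; 0% = DMSO vehicle and 100% = reference activator; nearly all actives have a fitted effect of over 75% in size.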 Particulars: NCI-H358 eGFP-delta133p53alpha fluorescence, 24 h; active compounds read high.

On to `Cc1cccc([N+](=O)[O-])c1[N+](=O)[O-]`, for which the activation is inactive: -21.8%.
